Among the data in patent US20020183241A1, “Methods for treating vertigo and motion sickness using descarboethoxyloratadine” (priority 1997, published 2002) are IC50 values, retold here.

By UniProt entry, the sequences of proteins in these tests, tags left out.
UniProt P20309, whole entry: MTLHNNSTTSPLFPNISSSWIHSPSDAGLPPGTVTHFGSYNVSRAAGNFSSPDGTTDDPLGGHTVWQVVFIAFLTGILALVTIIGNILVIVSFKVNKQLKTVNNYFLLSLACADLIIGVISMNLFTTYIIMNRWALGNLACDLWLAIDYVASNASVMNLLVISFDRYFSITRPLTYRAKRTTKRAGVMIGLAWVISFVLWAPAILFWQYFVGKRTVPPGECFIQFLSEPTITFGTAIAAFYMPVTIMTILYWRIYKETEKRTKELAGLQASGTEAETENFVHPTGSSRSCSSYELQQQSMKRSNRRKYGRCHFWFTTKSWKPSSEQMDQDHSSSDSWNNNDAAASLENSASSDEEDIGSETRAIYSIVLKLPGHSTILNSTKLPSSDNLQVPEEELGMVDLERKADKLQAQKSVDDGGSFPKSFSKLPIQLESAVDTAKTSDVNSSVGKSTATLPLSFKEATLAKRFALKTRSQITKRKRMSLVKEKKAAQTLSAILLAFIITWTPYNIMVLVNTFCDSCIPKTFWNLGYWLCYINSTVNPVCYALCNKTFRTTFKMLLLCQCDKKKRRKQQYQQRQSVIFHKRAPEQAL

The assay has as its target human m3 muscarinic receptor (Homo sapiens, UniProt P20309). To be noted: read-out: estimated IC50, m3 receptor.

Broadly, the IC50 is the concentration that gives 50% inhibition.

For the substance “4-diphenylacetoxy-N-methylpiperidine [4-DAMP]”, the IC50 was 3.2 nM.
